The target of the first data set is C. albicans Hsp90 NBD (Candida albicans (strain SC5314 / ATCC MYA-2876) (Yeast), UniProt P46598). Briefly: FP assay with purified C. albicans Hsp90 NBD (Ki). It is filed as binding.
Conditions: not given
`Cn1nc(-c2ccccc2)cc1Nc1cc(O)cc(O)c1C(=O)N1Cc2ccccc2C1` [Compound 91, 4-(2,3-Dihydro-1H-isoindole-2-carbonyl)-5-((1-methyl-3-phenyl-1H-pyrazol-5-yl)amino]benzene-1,3-diol] came in with a Ki of 13 nM.

Another data set deals with Hsp90 (C. albicans whole cell lysate) (Candida albicans (strain SC5314 / ATCC MYA-2876) (Yeast), UniProt P46598). The data set is described as follows: biochemical. It is filed as binding.
Conditions: not given
On to `COc1ccc(Cn2nccc2Nc2cc(O)cc(O)c2C(=O)N2Cc3ccccc3C2)cc1` [Compound 40, 4-(2,3-Dihydro-1H-isoindole-2-carbonyl)-5-((1-((4-methoxyphenyl)methyl)-1H-pyrazol-5-yl)amino)benzene-1,3-diol], for which the EC50 was found to be 30 nM.

As to `Cc1cc(Nc2cc(O)cc(O)c2C(=O)N2Cc3ccccc3C2)n(Cc2ccccc2Cl)n1` [Compound 89, 5-((1-((2-Chlorophenyl)methyl)-3-methyl-1H-pyrazol-5-yl)amino)-4-(2,3-dihydro-1H-isoindole-2-carbonyl)benzene-1,3-diol], the response was half-maximal at 70 nM (EC50).

Regarding `Cn1nc(-c2ccccc2)cc1Nc1cc(O)cc(O)c1C(=O)N1Cc2ccccc2C1` [Compound 91, 4-(2,3-Dihydro-1H-isoindole-2-carbonyl)-5-((1-methyl-3-phenyl-1H-pyrazol-5-yl)amino]benzene-1,3-diol], the EC50 came out at 630 nM.

`Cn1nc(-c2ccccc2)cc1Nc1cc(O)cc(O)c1C(=O)N1Cc2cccnc2C1` [Compound 92, 5-((1-Methyl-3-phenyl-1H-pyrazol-5-yl)amino)-4-(5H,6H,7H-pyrrolo[3,4-b]pyridine-6-carbonyl)benzene-1,3-diol]: the EC50 amounted to 1350 nM.

On to `CC(C)(C)n1nc(-c2ccccc2)cc1Nc1cc(O)cc(O)c1C(=O)N1Cc2cccnc2C1` [Compound 94, 5-((1-tert-Butyl-3-phenyl-1H-pyrazol-5-yl)amino)-4-(5H,6H,7H-pyrrolo[3,4-b]pyridine-6-carbonyl)benzene-1,3-diol], for which the response was half-maximal at 1610 nM (EC50).

Compound `CC(C)Cn1nc(-c2ccccc2)cc1Nc1cc(O)cc(O)c1C(=O)N1Cc2cccnc2C1` [Compound 98, 5-((1-(2-Methylpropyl)-3-phenyl-1H-pyrazol-5-yl)amino)-4-(5H,6H,7H-pyrrolo[3,4-b]pyridine-6-carbonyl)benzene-1,3-diol] showed an EC50 of 370 nM.

Still in this data set, the particulars now being: FP competition, whole cell lysate, duplicate, screening experiment; read-out: C. albicans EC50.
With `COc1ccc(Cn2ncc(C(C)C)c2Nc2cc(O)cc(O)c2C(=O)N2Cc3ccccc3C2)cc1` [Compound 42, 4-(2,3-Dihydro-1H-isoindole-2-carbonyl)-5-((1-((4-methoxyphenyl)methyl)-4-(propan-2-yl)-1H-pyrazol-5-yl)amino)benzene-1,3-diol], the EC50 stood at 147 nM.

For `COc1ccc(Cn2ncc(-c3ccccc3)c2Nc2cc(O)cc(O)c2C(=O)N2Cc3ccccc3C2)cc1` [Compound 43, 4-(2,3-Dihydro-1H-isoindole-2-carbonyl)-5-((1-((4-methoxyphenyl)methyl)-4-phenyl-1H-pyrazol-5-yl)amino)benzene-1,3-diol], the half-maximal effective concentration (EC50) was found to be 615 nM.

Take `COc1ccc(Cn2ncc(Cc3ccccc3)c2Nc2cc(O)cc(O)c2C(=O)N2Cc3ccccc3C2)cc1` [Compound 44, 5-((4-Benzyl-1-((4-methoxyphenyl)methyl)-1H-pyrazol-5-yl)amino)-4-(2,3-dihydro-1H-isoindole-2-carbonyl)benzene-1,3-diol]: the EC50 was determined as 465 nM.

`COc1ccc(Cn2nc(C(C)(C)C)cc2Nc2cc(O)cc(O)c2C(=O)N2Cc3ccccc3C2)cc1` [Compound 49, (2-((3-(tert-Butyl)-1-(4-methoxybenzyl)-1H-pyrazol-5-yl)amino)-4,6-dihydroxyphenyl)(isoindolin-2-yl)methanone]: the EC50 was found to be 816 nM.

As for `Cn1nccc1Nc1cc(O)cc(O)c1C(=O)N1Cc2cccnc2C1` [Compound 57, 5-((1-Methyl-1H-pyrazol-5-yl)amino)-4-(5H,6H,7H-pyrrolo[3,4-b]pyridine-6-carbonyl)benzene-1,3-diol], the EC50 came out at 624 nM.

On to `CC(C)n1nccc1Nc1cc(O)cc(O)c1C(=O)N1Cc2ccccc2C1` [Compound 59, 4-(2,3-Dihydro-1H-isoindole-2-carbonyl)-5-((1-(propan-2-yl)-1H-pyrazol-5-yl)amino)benzene-1,3-diol], for which the EC50 came out at 76 nM.

In the case of `O=C(c1c(O)cc(O)cc1Nc1ccnn1Cc1cccnc1)N1Cc2cccnc2C1` [Compound 78, 5-((1-((Pyridin-3-yl)methyl)-1H-pyrazol-5-yl)amino)-4-(5H,6H,7H-pyrrolo[3,4-b]pyridine-6-carbonyl)benzene-1,3-diol], the EC50 was determined as 143 nM.

As to `O=C(c1c(O)cc(O)cc1Nc1ccnn1Cc1ccco1)N1Cc2cccnc2C1` [Compound 81, 5-((1-((Furan-2-yl)methyl)-1H-pyrazol-5-yl)amino)-4-(5H,6H,7H-pyrrolo[3,4-b]pyridine-6-carbonyl)benzene-1,3-diol], the EC50 turned out to be 80 nM.

Consider `Cc1ccc(Cn2nc(C)cc2Nc2cc(O)cc(O)c2C(=O)N2Cc3ccccc3C2)cc1` [Compound 88, 4-(2,3-Dihydro-1H-isoindole-2-carbonyl)-5-((3-methyl-1-((4-methylphenyl)methyl)-1H-pyrazol-5-yl)amino)benzene-1,3-diol], for which the half-maximal effective concentration (EC50) was determined as 121 nM.

On to `CC(C)(C)n1nc(-c2ccccc2)cc1Nc1cc(O)cc(O)c1C(=O)N1Cc2cccnc2C1` [Compound 94, 5-((1-tert-Butyl-3-phenyl-1H-pyrazol-5-yl)amino)-4-(5H,6H,7H-pyrrolo[3,4-b]pyridine-6-carbonyl)benzene-1,3-diol], for which the EC50 worked out at 379 nM.

Turning to `CC(C)(C)n1nc(-c2ccccc2)cc1Nc1cc(O)cc(O)c1C(=O)N1Cc2cn[nH]c2C1` [Compound 95, 5-((1-tert-Butyl-3-phenyl-1H-pyrazol-5-yl)amino)-4-(1H,4H,5H,6H-pyrrolo[3,4-c]pyrazole-5-carbonyl)benzene-1,3-diol], the EC50 was found to be 182 nM.

On to `O=C(c1c(O)cc(O)cc1Nc1cc(-c2ccccc2)nn1C1CCCCC1)N1Cc2cccnc2C1` [Compound 96, 5-((1-Cyclohexyl-3-phenyl-1H-pyrazol-5-yl)amino)-4-(5H,6H,7H-pyrrolo[3,4-b]pyridine-6-carbonyl)benzene-1,3-diol], for which the EC50 is 59 nM.

Turning to `O=C(c1c(O)cc(O)cc1Nc1cc(-c2ccccc2)nn1C1CCCCC1)N1Cc2cn[nH]c2C1` [Compound 97, 5-((1-Cyclohexyl-3-phenyl-1H-pyrazol-5-yl)amino)-4-(1H,4H,5H,6H-pyrrolo[3,4-c]pyrazole-5-carbonyl)benzene-1,3-diol], the EC50 turned out to be 34 nM.

`CC(C)Cn1nc(-c2ccccc2)cc1Nc1cc(O)cc(O)c1C(=O)N1Cc2cccnc2C1` [Compound 98, 5-((1-(2-Methylpropyl)-3-phenyl-1H-pyrazol-5-yl)amino)-4-(5H,6H,7H-pyrrolo[3,4-b]pyridine-6-carbonyl)benzene-1,3-diol]: the EC50 turned out to be 100 nM.

The same data set, now with this note: read-out: C. alb EC50.
Consider `Cn1nccc1Nc1cc(O)cc(O)c1C(=O)N1Cc2cn[nH]c2C1` [Compound 58, 5-((1-Methyl-1H-pyrazol-5-yl)amino)-4-(1H,4H,5H,6H-pyrrolo[3,4-c]pyrazole-5-carbonyl)benzene-1,3-diol], for which the EC50 amounted to 377 nM.

Turning to `Cn1nc(-c2ccccc2)cc1Nc1cc(O)cc(O)c1C(=O)N1Cc2cccnc2C1` [Compound 92, 5-((1-Methyl-3-phenyl-1H-pyrazol-5-yl)amino)-4-(5H,6H,7H-pyrrolo[3,4-b]pyridine-6-carbonyl)benzene-1,3-diol], the EC50 is 395 nM.

System in a further data set: not listed separately
Briefly: in vitro. As to conditions: both, CD-1, mouse, microsomes.
On to `COc1cccc(-c2cc(Nc3cc(O)cc(O)c3C(=O)N3Cc4cn[nH]c4C3)n(C)n2)c1` [Compound 114, 5-((3-(3-Methoxyphenyl)-1-methyl-1H-pyrazol-5-yl)amino)-4-(1H,4H,5H,6H-pyrrolo[3,4-c]pyrazole-5-carbonyl)benzene-1,3-diol], for which the half-life at 1 μM was 17.2 min.

`Cn1nc(-c2ccc(OC(F)(F)F)cc2)cc1Nc1cc(O)cc(O)c1C(=O)N1Cc2cccnc2C1` [Compound 131, 5-((1-Methyl-3-(4-(trifluoromethoxy)phenyl)-1H-pyrazol-5-yl)amino)-4-(5H,6H,7H-pyrrolo[3,4-b]pyridine-6-carbonyl)benzene-1,3-diol] gave a half-life at 1 μM of 14.1 min.

Turning to `Cn1nc(-c2ccc(OC(F)(F)F)cc2)cc1Nc1cc(O)cc(O)c1C(=O)N1Cc2cn[nH]c2C1` [Compound 132, 5-((1-Methyl-3-(4-(trifluoromethoxy)phenyl)-1H-pyrazol-5-yl)amino)-4-(1H,4H,5H,6H-pyrrolo[3,4-c]pyrazole-5-carbonyl)benzene-1,3-diol], the half-life at 1 μM was found to be 31 min.

The term Ki denotes the dissociation constant of the complex between target and ligand, obtained from inhibition or displacement. High values mean weaker binding, low ones tighter binding. One may read the EC50 as the concentration giving half of the maximal effect. Broadly, the half-life is the time in which the quantity being followed falls by half. Read a high half-life as slow decline.

The values are drawn from patent US11312722B2, “Hsp90 inhibitors and uses thereof” (TRUSTEES OF BOSTON UNIVERSITY, priority 2019, dated 2022).
